Patent US20260174750A1 (Merck Sharp & Dohme LLC, priority 2022, published 2026)
pIC50: −log10 of the molar value.

Protein sequences, listed by entry. Tags and fused reporters are not part of them.
UniProt Q96PD7, whole entry: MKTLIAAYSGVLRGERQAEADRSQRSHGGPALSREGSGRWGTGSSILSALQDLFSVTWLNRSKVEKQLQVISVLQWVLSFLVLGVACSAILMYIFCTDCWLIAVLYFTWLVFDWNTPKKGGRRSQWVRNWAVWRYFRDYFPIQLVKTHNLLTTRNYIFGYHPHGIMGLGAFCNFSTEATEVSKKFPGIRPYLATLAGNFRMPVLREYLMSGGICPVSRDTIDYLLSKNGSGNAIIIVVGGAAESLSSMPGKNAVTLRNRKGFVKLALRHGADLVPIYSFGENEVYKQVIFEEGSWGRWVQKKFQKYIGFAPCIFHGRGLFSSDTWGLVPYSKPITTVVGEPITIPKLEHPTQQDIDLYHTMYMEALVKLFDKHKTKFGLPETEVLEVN

Molecular target: human DGAT2 (Homo sapiens, UniProt Q96PD7)

Compound `Cc1c(Oc2ncc(Cl)cc2OCC(C)(F)F)ccc2nc(C(=O)NC3(CC(F)(F)F)CCS(=O)(=O)CC3)nn12` has a pIC50 of 6.20.
